{"sequences": {"note": "By UniProt entry, the sequences of proteins in these tests, tags left out. Residues count along the entry.", "UniProt P63098, 2-170 limits assumed": "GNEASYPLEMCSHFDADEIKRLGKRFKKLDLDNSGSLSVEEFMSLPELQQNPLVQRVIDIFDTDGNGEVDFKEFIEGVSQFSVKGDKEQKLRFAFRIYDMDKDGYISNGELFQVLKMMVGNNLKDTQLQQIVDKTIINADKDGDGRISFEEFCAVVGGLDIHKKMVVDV"}, "source": "patent EP2705856A1", "about": "“Compounds for the treatment of neurodegenerative disorders” (Deutsches Zentrum für Neurodegenerative Erkrankungen e.V., priority 2012, dated 2014)", "biological_target": "Calcineurin (Homo sapiens, UniProt P63098+Q08209)", "test": "Calcineurin activity measurement (malachite green based assay)", "conditions": "compound complexed with hCypA only (15 µM)", "data": [{"compound": "C/C=C/C[C@@H](C)[C@@H](O)[C@H]1C(=O)N[C@@H](CC)C(=O)N(C)CC(=O)N(C)[C@@H](CC(C)C)C(=O)N[C@@H](C(C)C)C(=O)N(C)[C@@H](CC(C)C)C(=O)N[C@@H](C)C(=O)N[C@H](COCC(=O)NCCCCCCCCCNC(=O)C=CC[C@@H]2/C=C(\\C)C[C@H](C)C[C@H](OC)[C@H]3O[C@@](O)(C(=O)C(=O)N4CCCC[C@H]4C(=O)O[C@H](/C(C)=C/[C@@H]4CC[C@@H](O)[C@H](OC)C4)[C@H](C)[C@@H](O)CC2=O)[C@H](C)C[C@@H]3OC)C(=O)N(C)[C@@H](CC(C)C)C(=O)N(C)[C@@H](CC(C)C)C(=O)N(C)[C@@H](C(C)C)C(=O)N1C", "values": [{"measurement": "/C50-values, CaN inhibition", "value": "nanomolar concentrations"}]}, {"compound": "C/C=C/C[C@@H](C)[C@@H](O)[C@H]1C(=O)N[C@@H](CC)C(=O)N(C)CC(=O)N(C)[C@@H](CC(C)C)C(=O)N[C@@H](C(C)C)C(=O)N(C)[C@@H](CC(C)C)C(=O)N[C@@H](C)C(=O)N[C@H](COCC(=O)NCCCCCNC(=O)C=CC[C@@H]2/C=C(\\C)C[C@H](C)C[C@H](OC)[C@H]3O[C@@](O)(C(=O)C(=O)N4CCCC[C@H]4C(=O)O[C@H](/C(C)=C/[C@@H]4CC[C@@H](O)[C@H](OC)C4)[C@H](C)[C@@H](O)CC2=O)[C@H](C)C[C@@H]3OC)C(=O)N(C)[C@@H](CC(C)C)C(=O)N(C)[C@@H](CC(C)C)C(=O)N(C)[C@@H](C(C)C)C(=O)N1C", "values": [{"measurement": "/C50-values, CaN inhibition", "value": "lower micromolar range"}]}]}
